ChEMBL document CHEMBL5727219, “Kinase inhibitors and method of treating cancer” (2019)

Amino acid sequences for entries named in this document (tags omitted). A change or cut given only in a name is not applied to a line headed by its entry.
UniProt O00444: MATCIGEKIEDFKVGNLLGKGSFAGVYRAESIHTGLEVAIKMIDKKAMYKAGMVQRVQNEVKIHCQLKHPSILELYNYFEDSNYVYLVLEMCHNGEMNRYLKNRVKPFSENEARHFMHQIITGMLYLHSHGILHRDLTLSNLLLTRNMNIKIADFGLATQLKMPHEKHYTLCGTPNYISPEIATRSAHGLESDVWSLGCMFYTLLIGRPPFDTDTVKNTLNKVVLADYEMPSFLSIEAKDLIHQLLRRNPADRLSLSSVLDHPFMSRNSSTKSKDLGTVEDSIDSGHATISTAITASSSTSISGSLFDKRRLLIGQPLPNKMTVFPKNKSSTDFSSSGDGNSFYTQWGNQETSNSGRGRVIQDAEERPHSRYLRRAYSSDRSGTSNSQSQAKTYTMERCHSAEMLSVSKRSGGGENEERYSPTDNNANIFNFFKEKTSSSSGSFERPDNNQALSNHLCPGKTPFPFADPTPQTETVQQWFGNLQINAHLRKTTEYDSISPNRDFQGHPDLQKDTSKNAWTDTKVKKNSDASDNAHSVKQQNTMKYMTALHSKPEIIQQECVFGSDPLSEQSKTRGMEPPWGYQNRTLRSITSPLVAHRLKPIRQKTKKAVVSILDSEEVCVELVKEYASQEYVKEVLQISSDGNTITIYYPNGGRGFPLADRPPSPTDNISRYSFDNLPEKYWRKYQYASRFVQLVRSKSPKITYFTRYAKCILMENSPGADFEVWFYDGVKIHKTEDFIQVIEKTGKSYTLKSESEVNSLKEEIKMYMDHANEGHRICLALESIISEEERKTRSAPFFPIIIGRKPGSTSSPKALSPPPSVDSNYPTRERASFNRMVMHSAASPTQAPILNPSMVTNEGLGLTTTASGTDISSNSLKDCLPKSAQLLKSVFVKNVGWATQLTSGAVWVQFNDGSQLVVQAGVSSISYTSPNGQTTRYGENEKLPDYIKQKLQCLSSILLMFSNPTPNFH

Target: Serine/threonine-protein kinase PLK4 (Homo sapiens, UniProt O00444)

How did the IC50 turn out when `O=C1Nc2ccccc2[C@@]12C[C@@H]2c1ccc2c(I)n[nH]c2c1` was run?
Its IC50 is 2000 nM.
